{"sequences": {"note": "Protein sequences, listed by entry. Tags and fused reporters are not part of them.", "UniProt G2LDI3, entry or part of it": "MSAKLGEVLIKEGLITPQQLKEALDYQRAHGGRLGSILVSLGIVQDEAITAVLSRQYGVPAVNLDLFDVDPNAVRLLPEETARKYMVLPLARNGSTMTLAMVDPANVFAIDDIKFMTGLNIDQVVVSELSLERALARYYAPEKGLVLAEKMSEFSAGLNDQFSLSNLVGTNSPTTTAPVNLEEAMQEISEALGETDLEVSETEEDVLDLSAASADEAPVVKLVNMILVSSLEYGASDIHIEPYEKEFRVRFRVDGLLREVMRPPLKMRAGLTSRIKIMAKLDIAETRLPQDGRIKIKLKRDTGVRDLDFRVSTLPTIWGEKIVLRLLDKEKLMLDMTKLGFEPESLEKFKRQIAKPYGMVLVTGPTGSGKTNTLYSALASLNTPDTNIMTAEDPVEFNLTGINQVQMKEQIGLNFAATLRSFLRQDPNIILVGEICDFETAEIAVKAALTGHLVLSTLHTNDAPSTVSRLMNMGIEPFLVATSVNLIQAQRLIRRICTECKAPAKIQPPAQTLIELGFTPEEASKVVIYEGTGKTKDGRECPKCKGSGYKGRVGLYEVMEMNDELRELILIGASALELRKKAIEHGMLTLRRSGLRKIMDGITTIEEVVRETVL"}, "source": "paper PMC8546689", "about": "“High-Throughput Screen for Inhibitors of the Type IV Pilus Assembly ATPase PilB” (mSphere, 2021)", "target": "T1, PilB (CtPilB), type IV pilus assembly ATPase (Chloracidobacterium thermophilum, UniProt G2LDI3)", "T1 construct": "gene Cabther_A1696", "experiment": "biochemical", "data": [{"compound": "O=c1c(O)c(-c2ccc(O)c(O)c2)oc2cc(O)cc(O)c12", "note": "[compound 77, quercetin]", "values": [{"measurement": "IC50", "value": 2.5, "unit": "µM"}]}]}
